Some compounds may have been tested in ways that are not shown here.
Tested on: Homo sapiens
Test: Determination of pharmacokinetic pararmeters of Fentanyl following first 72-hour application of Fentanyl Transdermal System to healthy subjects and intravenous (IV) administration to surgical and hepatically impaired patients
Details: in vivo, topical_or_ocular

In the case of CCC(=O)N(c1ccccc1)C1CCN(CCc2ccccc2)CC1, the Tmax is reported as 32.8 h [middle of 4 runs].

Reference: ChEMBL document CHEMBL3832038
